In patent US5925769A, “Acetylenic 1,5-diarylpyrazoles as antiinflammatory agents” (Ortho Pharmaceutical, Corp., priority 1998, dated 1999):

Target: T1, CO (Rattus norvegicus, UniProt Q63921)
T1 construct: the supernatant was saved as the source of enzymes; endogenous in cells; host or cells: RBL-1 (rat basophilic leukemia) cells
T1 sequence (Q63921 27-602): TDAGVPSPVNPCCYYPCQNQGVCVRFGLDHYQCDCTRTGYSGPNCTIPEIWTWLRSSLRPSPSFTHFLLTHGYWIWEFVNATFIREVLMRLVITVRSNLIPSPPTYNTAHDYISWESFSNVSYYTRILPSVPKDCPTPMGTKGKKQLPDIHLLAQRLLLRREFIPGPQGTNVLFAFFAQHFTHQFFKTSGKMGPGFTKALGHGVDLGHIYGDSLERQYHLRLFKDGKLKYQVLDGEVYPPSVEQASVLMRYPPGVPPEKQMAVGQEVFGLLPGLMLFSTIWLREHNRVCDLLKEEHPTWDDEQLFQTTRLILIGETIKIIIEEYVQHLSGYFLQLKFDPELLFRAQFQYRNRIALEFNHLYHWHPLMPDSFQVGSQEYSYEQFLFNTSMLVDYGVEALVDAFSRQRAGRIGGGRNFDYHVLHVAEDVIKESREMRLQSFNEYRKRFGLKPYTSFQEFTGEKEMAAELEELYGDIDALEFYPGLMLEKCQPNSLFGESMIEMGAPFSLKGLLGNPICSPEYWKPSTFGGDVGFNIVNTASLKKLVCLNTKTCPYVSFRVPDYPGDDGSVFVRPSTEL
Test: Procedure III: CO (PgD2) in intact RBL-1 cells
Format: cell-based
Method: The IC50 was determined using a curve fit in Cricket Graph (Computer Associated), which provided the equation of the regressed line used in the calculation.
In Procedure III, the ability to inhibit 5-LO and CO in intact RBL-1 cells was also evaluated. […] Cells were collected by centrifugation, washed once in HBSS, and resuspended at a concentration of 1×10^5 cells/mL. Cells were incubated in the presence of vehicle or drug then centrifuged at 800×g for 10 minutes at 4° C. The supernatant was removed by aspiration and the cells were resuspended in 0.5 mL of HBSS. […] The conversion of AA to 5-LO products was initiated by the addition of 10 μL (50 μCi) of 1-^14 C-AA. Products were isolated by acidification and extraction, followed by thin layer chromatography analysis as described above. Radioactive areas corresponding to authentic 5-LO (5-HETE) and CO (PgD2) products were quantitated by the Bioscan 2000 Imaging System and the IC50 was calculated as above.

| Compound | IC50 [nM] |
| --- | --- |
| COc1ccc(-n2nc(C#CC(C)N(O)C(=O)N3CCCCC3)cc2-c2ccc(Cl)cc2)cc1 (centres unmarked) [Cpd 9] | 690 |
| COc1ccc(-n2nc(C#CCN(O)C(=O)c3ccccc3)cc2-c2ccc(C)cc2)cc1 [Cpd 15] | 930 |
